These results are taken from PMC4169866 (Investigational New Drugs, 2014).

Assay [1] has as its system Colo-205 colorectal xenografts. Briefly: Subcutaneous colo-205 xenograft antitumor activity. In kind it is in vivo, mice. The conditions noted are these: colo-205, 56 days, either schedule.
In assay [2] the test system is Calu-6 lung xenografts. Briefly: Subcutaneous Calu-6 xenograft antitumor activity. In kind it is in vivo, mice. The conditions noted are these: 50 mg/kg LY2835219 oral, 60 or 150 mg/kg gemcitabine i.p.
For assay [3], the target named is T1, DYRK2 (Homo sapiens, UniProt Q92630).
T1 sequence (Q92630 1-601): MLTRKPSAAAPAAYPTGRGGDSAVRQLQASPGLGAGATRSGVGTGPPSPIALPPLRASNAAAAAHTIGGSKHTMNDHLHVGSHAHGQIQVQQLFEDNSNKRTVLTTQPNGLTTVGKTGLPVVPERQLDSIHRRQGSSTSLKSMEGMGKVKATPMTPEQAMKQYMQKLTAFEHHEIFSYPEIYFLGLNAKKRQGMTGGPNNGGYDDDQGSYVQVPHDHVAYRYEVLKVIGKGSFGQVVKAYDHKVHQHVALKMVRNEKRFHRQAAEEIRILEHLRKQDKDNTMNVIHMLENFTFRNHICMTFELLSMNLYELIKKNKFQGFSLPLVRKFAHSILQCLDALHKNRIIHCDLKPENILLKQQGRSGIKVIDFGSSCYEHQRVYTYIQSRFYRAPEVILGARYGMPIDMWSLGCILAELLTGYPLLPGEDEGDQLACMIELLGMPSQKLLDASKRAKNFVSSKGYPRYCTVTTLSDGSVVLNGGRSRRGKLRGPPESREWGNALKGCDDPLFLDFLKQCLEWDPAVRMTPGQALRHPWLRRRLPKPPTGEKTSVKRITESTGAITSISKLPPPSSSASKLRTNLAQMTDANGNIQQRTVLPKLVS
In words: Millipore (UBI) kinase panel DYRK2. The conditions noted are these: read-out: IC50 DYRK2; generated at millipore (UBI) kinase panel.

pIC50: −log10 of the molar value.

Turning to `CCN1CCN(Cc2ccc(Nc3ncc(F)c(-c4cc(F)c5nc(C)n(C(C)C)c5c4)n3)nc2)CC1` [LY2835219, [5-(4-Ethyl-piperazin-1-ylmethyl)-pyridin-2-yl]-[5-fluoro-4-(7-fluoro-3-isopropyl-2-methyl-3H-benzoimidazol-5-yl)-pyrimidin-2-yl]-amine], the “tumor outgrowth with prolonged treatment (acquired resistance)” value in assay [1] is given as “No tumor outgrowth”. Moreover, the “tumor growth inhibition, compound alone” value in assay [2] is reported as “active in inhibiting tumor growth”. In addition, in assay [3], the pIC50 is 7.21.
